System: GPI-PLC of hcDIGs from rat adipocytes
Assay: adipocyte GPI-PLC assay (cleavage of AChE, TX-114 partitioning)
Format: biochemical
Protocol: GPI-PLD (rat serum) was assayed according to "Hari et al. (1997) Biochim. Biophys. Acta 1355: 293-302" by incubation with 10 µl of human placental aP solution (100 U/ml in 10 mM Hepes/NaOH, pH 7.0, 150 mM NaCl) in 100 µl of 200 mM Tris/maleate (pH 7.0) and 1 % Nonidet P-40 for 10 min at 37°C and subsequent termination of the reaction by addition of 0.4 ml of ice-cold stop buffer (10 mM Hepes/NaOH, pH 7.0, 150 mM NaCl, 0.1 mM MgCl2 and 0.01 mM zinc acetate). GPI-PLC (T. brucei) was assayed as described in "Mensa-Wilmot et al. (1995) Methods Enzymol. […]
Pelleted hc/IcDIGs (10-50 µg protein) or (G)PI-PLC reaction mixtures (0.5 ml) were separated into amphiphilic and hydrophilic proteins using partitioning between TX-114-enriched and depleted phases according to "Bordier, C., (1981) J. Biol, Chem. 272: 2542-2550" by suspending in 1 ml of ice-cold TX-114 (1 %), 25 mM Tris/HCl (pH 7.4), 144 mM NaCl or mixing with 0.5 ml of ice-cold TX-114 (2 %), respectively. […] After re-extraction of the lower TX-114-enriched phase, aliquots of the pooled upper TX-114-depleted phase were measured for 5'-Nuc, aP and AChE activity or precipitated (15 % polyethylene glycol 4000) for SDS-PAGE analysis. […]
Fig. 2: Potency of GPI-2350. […] The lipolytic activity was calculated as % of the control reaction in the absence of GPI-2350 (set at 100 %). […]

Question: Which “inhibition % at 1 mM” value does the source give for `CCCCCCCCCCCCP(=O)(O)O[C@H]1[C@H](O)[C@@H](O)[C@H](O)[C@@H](O)[C@@H]1F` [GPI-1793, 2-deoxy-2-fluoro-scyllo-inositol-1-O-dodecyl-phosphonic acid] here?
Answer: 42 ± 5%

Source: patent publication EP1566447A1, “Glimepiride- and insulin-induced glycosylphosphatidylinositol-specific phospholipase C regulation” (priority 2004, dated 2005)
